Laboratory results: publication PMC4620681 (Bioorganic & medicinal chemistry letters, 2015)

Amino acid sequences for entries named in this document (tags omitted). A change or cut given only in a name is not applied to a line headed by its entry.
UniProt P41145: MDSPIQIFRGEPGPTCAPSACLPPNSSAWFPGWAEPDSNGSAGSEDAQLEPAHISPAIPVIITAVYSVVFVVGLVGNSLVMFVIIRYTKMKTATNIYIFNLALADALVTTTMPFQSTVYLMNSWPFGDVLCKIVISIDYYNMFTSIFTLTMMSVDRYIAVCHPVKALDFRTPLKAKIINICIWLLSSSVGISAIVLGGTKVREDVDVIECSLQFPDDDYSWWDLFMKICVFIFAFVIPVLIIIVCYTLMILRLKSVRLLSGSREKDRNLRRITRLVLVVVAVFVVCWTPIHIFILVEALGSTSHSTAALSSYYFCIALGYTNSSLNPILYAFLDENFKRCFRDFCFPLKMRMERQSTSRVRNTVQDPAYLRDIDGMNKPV
UniProt P32300, whole entry: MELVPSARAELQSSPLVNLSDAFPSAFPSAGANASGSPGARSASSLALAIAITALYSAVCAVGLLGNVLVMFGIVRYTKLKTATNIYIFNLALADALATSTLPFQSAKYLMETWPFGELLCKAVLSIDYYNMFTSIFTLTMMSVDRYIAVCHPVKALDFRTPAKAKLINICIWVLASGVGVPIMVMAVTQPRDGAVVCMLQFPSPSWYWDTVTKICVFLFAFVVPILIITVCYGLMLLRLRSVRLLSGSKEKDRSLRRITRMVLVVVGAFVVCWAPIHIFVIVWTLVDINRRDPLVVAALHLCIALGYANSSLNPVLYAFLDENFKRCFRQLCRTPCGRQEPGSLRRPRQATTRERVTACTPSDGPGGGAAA

What was measured:
human KOR (hKOR) = human KOR (hKOR) (Homo sapiens, UniProt P41145); type: binding; settings: read-out: Ki ± SEM κ
mouse DOR = mouse DOR (Mus musculus, UniProt P32300); type: binding; settings: read-out: Ki ± SEM δ

SMILES	Ki (human KOR (hKOR)) [µM]	Ki (mouse DOR) [µM]
COC[C@@]1(CCOCCI)C[C@@H](C(=O)OC)[C@]2(C)CC[C@H]3C(=O)O[C@H](c4ccoc4)C[C@]3(C)[C@H]2C1=O [Compound 14a]	0.108 ± 0.019	–
COC[C@@]1(CCCCCI)C[C@@H](C(=O)OC)[C@]2(C)CC[C@H]3C(=O)O[C@H](c4ccoc4)C[C@]3(C)[C@H]2C1=O [Compound 13a]	–	> 1
COC[C@@]1(C)C[C@@H](C(=O)OC)[C@]2(C)CC[C@H]3C(=O)O[C@H](c4ccoc4)C[C@]3(C)[C@H]2C1=O [Compound 9a, 2-methyl-2-methoxymethyl-salvinorin ether]	–	> 1
COC[C@@]1(CCCCCI)C[C@@H](C(=O)OC)[C@]2(C)CC[C@@H]3C(=O)O[C@H](c4ccoc4)C[C@]3(C)[C@H]2C1=O [Compound 13b]	–	> 1
COC[C@@]1(C)C[C@@H](C(=O)OC)[C@]2(C)CC[C@@H]3C(=O)O[C@H](c4ccoc4)C[C@]3(C)[C@H]2C1=O [Compound 9b]	–	> 1
COC[C@@]1(CCOCCI)C[C@@H](C(=O)OC)[C@]2(C)CC[C@@H]3C(=O)O[C@H](c4ccoc4)C[C@]3(C)[C@H]2C1=O [Compound 14b]	0.316 ± 0.07	–
